The experiment addresses C-X-C chemokine receptor type 2 (Homo sapiens, UniProt P25025). Nature of the experiment: Displacement of [125I]IL8 from human recombinant CXCR2 expressed in CHO cells. In kind it is cell-based. A general note: In a radioligand displacement assay an active substance lowers the binding of a labelled ligand.

Chains of the proteins cited; added tags and fusions are not shown.
UniProt P25025, whole entry: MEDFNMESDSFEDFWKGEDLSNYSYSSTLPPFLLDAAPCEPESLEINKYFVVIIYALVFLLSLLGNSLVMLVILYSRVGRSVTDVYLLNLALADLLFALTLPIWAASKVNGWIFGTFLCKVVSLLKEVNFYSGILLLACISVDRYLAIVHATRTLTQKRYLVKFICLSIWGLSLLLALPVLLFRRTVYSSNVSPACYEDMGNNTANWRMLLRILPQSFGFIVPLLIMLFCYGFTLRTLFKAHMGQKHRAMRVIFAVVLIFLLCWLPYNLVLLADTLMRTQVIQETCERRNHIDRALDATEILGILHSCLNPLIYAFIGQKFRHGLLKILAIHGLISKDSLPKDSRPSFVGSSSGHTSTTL

As for `O=C(Nc1ccc([N+](=O)[O-])cc1O)Nc1ccccc1Br`, the IC50 worked out at 22 nM.

For orientation: IC50 means the concentration that inhibits the measured activity by half.

(Values after ChEMBL document CHEMBL1139102, “Comparison of N,N'-diarylsquaramides and N,N'-diarylureas as antagonists of the CXCR2 chemokine receptor” (Bioorg Med Chem Lett, 2007).)
